The text below walks through data of US8541572B2.

Amino acid sequences for entries named in this document (tags omitted). Residues count along the entry.
UniProt P78536, 215-477 S266A/N452Q: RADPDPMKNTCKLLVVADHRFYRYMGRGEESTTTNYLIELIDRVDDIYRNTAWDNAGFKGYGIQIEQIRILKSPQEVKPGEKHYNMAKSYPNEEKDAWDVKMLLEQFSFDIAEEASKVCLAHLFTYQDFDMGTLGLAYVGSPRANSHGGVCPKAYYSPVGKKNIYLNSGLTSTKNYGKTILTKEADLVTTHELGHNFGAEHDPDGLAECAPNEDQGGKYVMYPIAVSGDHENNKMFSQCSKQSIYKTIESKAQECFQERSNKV

This experiment deals with recombinant human TACE catalytic domain (rhTACEc) (Homo sapiens (Human), UniProt P78536, N452Q/S266A). As to the kind of experiment: TACE kinetic FRET assay (cleavage of internally quenched peptide substrate TNF-FRET 2), Ki.

The structures appear in SMILES notation. Like-named read-outs stand apart in the source and are kept apart here.

Consider `COc1ccc2c(c1)C(=O)N(CC1(C#Cc3cccnc3N3CCN(C)CC3)NC(=O)NC1=O)C2` (stereo not drawn) [Compound 2285], for which the inhibition constant Ki (TACE) came to 0.66 nM.

On to `COc1ccc2c(c1)C(=O)N(CC1(C#Cc3cccnc3NCCN(C)C)NC(=O)NC1=O)C2` (stereo not drawn) [Compound 2286], for which the inhibition constant Ki (TACE) came to 0.83 nM.

As for `COc1ccc2c(c1)C(=O)N(C[C@@]1(C#Cc3cccnc3N3CCOCC3)NC(=O)NC1=O)C2` [Compound 2287], for the setting “TACE”, the inhibition constant Ki amounted to 0.19 nM.

Take `COc1ccc2c(c1)C(=O)N(C[C@@]1(C#Cc3ccc(NCCN(C)C)nc3)NC(=O)NC1=O)C2` [Compound 2289]: the inhibitory constant (Ki) (TACE) came to 0.43 nM.

Take `COc1ccc2c(c1)C(=O)N(C[C@@]1(C#Cc3ccc(-c4cn[nH]c4)nc3)NC(=O)NC1=O)C2` [Compound 2292]: the Ki (TACE) amounted to 0.19 nM.

With `COc1ccc2c(c1)C(=O)N(C[C@@]1(C#Cc3ccc(C(=NO)N4CCNC[C@@H]4C)cc3)NC(=O)NC1=O)C2` [Compound 2293], the Ki is 0.43 nM.

Take `COc1ccc2c(c1)C(=O)N(C[C@@]1(C#Cc3ccc(C(=NO)N4[C@H](C)CNC[C@@H]4C)cc3)NC(=O)NC1=O)C2` [Compound 2294]: the inhibition constant Ki is 0.68 nM.

Take `COc1ccc2c(c1)C(=O)N(C[C@@]1(C#Cc3ccc(N4CCCCC4=O)cc3)NC(=O)NC1=O)C2` [Compound 2295]: the Ki (TACE) turned out to be 0.68 nM.

Take `COc1ccc2c(c1)C(=O)N(C[C@@]1(C#Cc3ccc(-c4cn[nH]c4N)cc3)NC(=O)NC1=O)C2` [Compound 2296]: the inhibitory constant (Ki) (TACE) is 0.62 nM.

As for `COc1ccc2c(c1)C(=O)N(CC1(C#Cc3cnc(N4CCC5(CC4)NC(=O)NC5=O)nc3N)NC(=O)NC1=O)C2` (stereo not drawn) [Compound 2310], the Ki (TACE) stood at 1.1 nM.

With `COc1ccc2c(c1)C(=O)N(C[C@@]1(C#Cc3ccc4c(c3)CCCC43NC(=O)NC3=O)NC(=O)NC1=O)C2` (stereo partly drawn) [Compound 2312], the inhibitory constant (Ki) (TACE) came to 0.29 nM.

As for `CCN1CCN(C(=NO)c2ccc(C#C[C@]3(CN4CCc5cc(OC)ccc5C4=O)NC(=O)NC3=O)cc2)CC1` [Compound 2316], the Ki was determined as 0.27 nM.

`COc1ccc2c(c1)CCN(C[C@@]1(C#Cc3ccc(C(=NO)N4CCCN(C)CC4)cc3)NC(=O)NC1=O)C2=O` [Compound 2317]: under “TACE”, the Ki was 0.48 nM.

For `COc1ccc2c(c1)CCN(C[C@@]1(C#Cc3ccc(C(=NO)N4CCN(C)CC4)cc3)NC(=O)NC1=O)C2=O` [Compound 2320], the Ki came out at 0.24 nM.

On to `COc1ccc2c(c1)CCN(C[C@@]1(C#Cc3ccc4c(c3)CCCC43NC(=O)NC3=O)NC(=O)NC1=O)C2=O` (stereo partly drawn) [Compound 2321], for which the Ki was determined as 0.52 nM.

As a reminder, the Ki is a measure of affinity in units of concentration, obtained from inhibition or displacement.
